For one compound, activation results are on record in PubChem BioAssay AID1296 (Columbia University Molecular Screening Center, 2008).

The list shows a part of the results, in another mix than the full data. Calls of active or inactive are those of the source.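 The calls were made as follows: active = activation at 2 µM above a set limit, confirmed on inspection of the cell images; inconclusive = above the set limit but not confirmed on image inspection; inactive = the rest.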

This assay can be described thus: activators of insulin promoter-driven GFP, primary screen, imaging, TRM-6 cells, eGFP reporter, cell count (AID 1296).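 Also: share of cells whose green reporter signal exceeds an intensity cutoff.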 To be noted: at 2 µM, active compounds read high, plate-scaled: unstimulated 0, stimulated control 100. In a few lines: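 System: human fetal islet-derived TRM-6 cells with tamoxifen-inducible insulin promoter–eGFP reporter; input: seeding density of 1,000 cells per well; buffer or medium: Low-glucose (5.5 mM) medium with tamoxifen; incubation: compound exposure 48 h, 37 °C; measured by: high-content imaging of fixed cells with Hoechst nuclear stain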
Regarding `CC(=O)NC(SC(=S)N(CC(C)C)CC(C)C)C(Cl)(Cl)Cl` (stereo unspecified), the activation was active: 294%.
